Experimental data reported in patent publication US20140147490A1 (published 2014).
Where two headings read alike, the source gives them in different places.

Key:
[1] = tested on: normal human T cells (PBMC); format: cell-based
HLA-DR molecules = settings: 16 most prevalent HLA-DR molecules; cited from earlier work

CC[C@H](C)[C@H](NC(=O)CNC(=O)[C@@H](NC(=O)[C@H](Cc1ccccc1)NC(=O)[C@H](CCCCN)NC(=O)[C@H](CO)NC(=O)[C@H](CC(N)=O)NC(=O)[C@H](C)NC(=O)[C@H](CCCCN)NC(=O)[C@@H](NC(=O)[C@H](Cc1ccc(O)cc1)NC(=O)[C@@H](N)CCC(N)=O)[C@@H](C)CC)[C@@H](C)CC)C(=O)N[C@H](C(=O)N[C@@H](CCC(=O)O)C(=O)O)[C@@H](C)O [553.01, reference compound]
antigen concentration at which the 10,000 cpm proliferation level was reached [1]: about 10,000 ng/ml
donors with primary T cell responses [1]: 2 out of 3
number of HLA-DR molecules bound of 16 tested (HLA-DR molecules): seven of 16

aKXVAAWTLKAAa-NH2 [PADRE]
potency relative to TT 830-843 antigen for activation of T cell responses, on a molar basis [1]: about 100 fold
donors with primary T cell responses ([1]; PBMC from three normal donors, after third round of stimulation): all three donors
